# Article PMC8092523 (Antimicrobial Agents and Chemotherapy, 2021)
# System: pYL42 and pYL53 strains
# Conditions: 960 min
smiles,measurement,value
CN[C@@H]1[C@H](O)[C@H](NC)[C@H]2O[C@]3(O)[C@H](O[C@@H]2[C@H]1O)O[C@H](C)C[C@H]3NC(=O)Cc1ccc(Cl)cn1 [Spa],MIC higher for pYL53 than for pYL42,~4 fold
